Source: article PMC7766327, “Inhibition of Pneumolysin Cytotoxicity by Hydrolysable Tannins” (Antibiotics, 2020)

By UniProt entry, the sequences of proteins in these tests, tags left out.
UniProt Q04IN8, whole entry: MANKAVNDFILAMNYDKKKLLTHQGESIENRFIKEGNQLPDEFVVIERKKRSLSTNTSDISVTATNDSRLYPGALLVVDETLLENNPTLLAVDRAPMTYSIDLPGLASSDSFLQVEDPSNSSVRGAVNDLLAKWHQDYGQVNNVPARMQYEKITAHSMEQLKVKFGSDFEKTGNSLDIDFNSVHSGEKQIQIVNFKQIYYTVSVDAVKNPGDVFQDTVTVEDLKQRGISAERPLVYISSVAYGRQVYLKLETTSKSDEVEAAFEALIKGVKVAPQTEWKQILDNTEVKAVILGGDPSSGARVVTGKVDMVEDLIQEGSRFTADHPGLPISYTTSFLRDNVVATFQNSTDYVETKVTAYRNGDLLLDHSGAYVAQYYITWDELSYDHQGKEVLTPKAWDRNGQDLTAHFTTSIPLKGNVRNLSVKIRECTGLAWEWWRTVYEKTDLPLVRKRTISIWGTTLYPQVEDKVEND

Biological target: T1, pneumolysin (Ply) (Streptococcus pneumoniae serotype 2, UniProt Q04IN8)
T1 construct: made in house; host or cells: E. coli BL21(DE3)
Experiment: cell-based
Conditions: IC50 (screening with hemolysis assays)
Experimental: Native human erythrocytes were taken into EDTA tubes. The erythrocytes were washed three times with PBS (0.15 M NaCl, 2.7 mM KCl, 8.1 mM Na2HPO4 and 1.5 mM KH2PO4) by centrifugation at 700× g for 10 min. The purified erythrocytes were stored at +4 °C. Erythrocytes (1% v/v) in PBS were mixed with 1 nM Ply and dilution series of polyphenol inhibitors in 96-well microtiter plates. The reaction was incubated for 30 min at 37 °C. The plates were centrifuged, and the supernatant was pipetted into flat-bottomed microtiter plates to measure the absorbance at 570 nm (VICTOR X4, PerkinElmer, Turku, Finland) of the released hemoglobin from lysed erythrocytes. The absorbances of triplicate measurements are presented as a function of inhibitor concentration. The IC50 values were calculated with Origin data analysis software (2016, OriginLab Corporation, Northampton, MA, USA).

O=C(O)C[C@@H]1C(=O)O[C@H]2[C@H](OC(=O)c3cc(O)c(O)c(O)c3)[C@@H](OC(=O)c3cc(O)c(O)c4c3[C@H]1[C@H](O)C(=O)O4)[C@H](OC(=O)c1cc(O)c(O)c(O)c1)O[C@@H]2COC(=O)c1cc(O)c(O)c(O)c1 [Chebulinic acid]
IC50: > 100 nM
